{"source": "patent US20120107282A1", "about": "“NEURAL STEM CELL COMPOSITION CAPABLE OF TREATING CANCER AND METHOD OF TREATMENT” (S. BIOMEDICS CO., LTD., priority 2010, published 2012)", "origin": "cited, not measured here", "molecules": {"B1": {"name": "IFN-β: exogenous interferon-β, a type I IFN (protein, UniProt P01574 22-187, looked up)", "Interferon beta": "MSYNLLGFLQRSSNFQCQKLLWQLNGRLEYCLKDRMNFDIPEEIKQLQQFQKEDAALTIYEMLQNIFAIFRQDSSSTGWNETIVENLLANVYHQINHLKTVLEEKLEKEDFTRGKLMSSLHLKRYYGRILHYLKAKEYSHCAWTIVRVEILRNFYFINRLTGYLRN"}}, "tested_on": "cultured human glioma cells", "conditions": "glioma cell growth"}
{"molecule": "B1", "values": [{"measurement": "increase in the concentration required to obtain a similar inhibitory effect as IFN-β gene transfer", "result": 40, "unit": "fold"}]}
